US11987637B1, “Prevention of disulfide bond reduction during recombinant production of polypeptides” (Genentech, Inc., priority 2007, dated 2024)

Experiments:
[1] = target: T1, thioredoxin system (Trx, TrxR, NADPH) (Rattus norvegicus, UniProt O89049); assay: In vitro Trx/TrxR study in histidine sulfate buffer: reduction of ocrelizumab, Bioanalyzer assay
T1 sequence (O89049 1-499): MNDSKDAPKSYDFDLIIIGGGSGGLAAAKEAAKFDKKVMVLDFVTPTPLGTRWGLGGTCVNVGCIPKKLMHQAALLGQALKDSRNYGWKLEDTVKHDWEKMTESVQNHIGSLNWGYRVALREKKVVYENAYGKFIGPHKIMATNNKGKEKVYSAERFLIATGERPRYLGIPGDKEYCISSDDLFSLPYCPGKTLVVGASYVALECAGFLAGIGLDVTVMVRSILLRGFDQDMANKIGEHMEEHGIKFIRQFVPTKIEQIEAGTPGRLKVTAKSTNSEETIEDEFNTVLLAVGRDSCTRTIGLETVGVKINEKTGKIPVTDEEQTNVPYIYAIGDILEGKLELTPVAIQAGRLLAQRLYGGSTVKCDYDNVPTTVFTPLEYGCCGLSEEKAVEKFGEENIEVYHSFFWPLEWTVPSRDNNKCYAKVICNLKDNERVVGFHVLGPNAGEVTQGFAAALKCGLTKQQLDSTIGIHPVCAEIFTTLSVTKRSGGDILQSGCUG

[2] = tested on: antibody disulfide bond reduction in CCF/HCCF; assay: Minimum effective inhibitor concentration to prevent antibody disulfide reduction in the CHO production process; format: biochemical

**Q.** For `O=S(=O)([O-])[O-].[Cu+2]` [CuSO4, cupric sulfate], which “inhibition of ocrelizumab reduction by Trx system” value ([1]; inhibitor 5 μM (1:1 Cu2+:Trx) (FIG. 33)) is on record?
**A.** insufficient to result in a complete inhibition of reduction

**Q.** And the “inhibition of ocrelizumab reduction by Trx system” value ([1]; inhibitor 10 μM (2:1 Cu2+:Trx) (FIG. 32))?
**A.** effectively inhibits thioredoxin-induced reduction of ocrelizumab

**Q.** And the “inhibition of ocrelizumab reduction by Trx system” value ([1]; inhibitor 20 μM (4:1 Cu2+:Trx) (FIG. 31))?
**A.** effectively inhibits thioredoxin-induced reduction of ocrelizumab

**Q.** What about the “inhibition of ocrelizumab reduction by Trx system” value ([1]; inhibitor 50 μM (FIG. 9)) of the same molecule?
**A.** effectively inhibited the ocrelizumab reduction

**Q.** What about the “minimal inhibitor concentration as multiple of Trx concentration” value ([1]; typical) of the same molecule?
**A.** 2 × Trx concentration

**Q.** And the minimum effective concentration ([2]; added in CC medium, Apomab)?
**A.** about 25 μM

**Q.** And the minimum effective concentration ([2]; added in CC medium, antibody 2H7 (Variant A))?
**A.** about 15 μM

**Q.** What about the minimum effective concentration ([2]; added in CC medium, antibody Variant C) of the same molecule?
**A.** about 20 μM

**Q.** And the minimum effective concentration ([2]; added pre-lysis, Apomab)?
**A.** about 75 μM

**Q.** And the minimum effective concentration ([2]; added pre-lysis, antibody 2H7 (Variant A))?
**A.** about 30 μM

**Q.** And the minimum effective concentration ([2]; added pre-lysis, antibody Variant C)?
**A.** about 501 μM
